Literature values as cited in US20170209483A1, “ANTIBIOTIC ACTIVITY OF IRON SEQUESTERING POLYMERS” (UNIVERSITY OF KANSAS, priority 2014, published 2017).

Details: reference chelator of the ligand competition method; cited from earlier work

sodium ethylene diamine tetraacetate [EDTA]
Iron stability constant: 10^25
